From the NIST ThermoML archive (doi:10.1016/j.jct.2018.11.010)

Settings: Liquid, Vibrating tube method

CCCCOCCCC [dibutyl ether]
mass density [kg/m3]
Settings	298.15 K	313.15 K	333.15 K	353.15 K	373.15 K	393.15 K
100 kPa	763.8	750.7	733	715	–	–
1000 kPa	764.7	751.6	734	716.2	697.9	679
5000 kPa	768.2	755.6	738.5	721.3	703.8	685.9
10000 kPa	772.4	760.1	743.6	727.2	710.5	693.5
15000 kPa	776.4	764.5	748.6	732.7	716.7	700.6
20000 kPa	780.2	768.6	753.1	737.8	722.4	706.9
25000 kPa	783.7	772.3	757.5	742.6	727.7	712.8
30000 kPa	787.3	776.2	761.5	747.1	732.7	718.3
35000 kPa	790.6	779.7	765.5	751.4	737.4	723.5
40000 kPa	793.8	783.1	769.2	755.4	741.9	728.3
45000 kPa	796.9	786.4	772.7	759.3	746.1	732.8
50000 kPa	799.8	789.7	776.2	763	750	737.2
55000 kPa	802.8	792.7	779.6	766.6	754	741.4
60000 kPa	805.6	795.7	782.7	770.1	757.7	745.3
65000 kPa	808.3	798.6	785.8	773.4	761.2	749.1
70000 kPa	811	801.4	788.8	776.7	764.6	752.8
80000 kPa	816.1	806.7	794.6	782.7	771.2	759.7
90000 kPa	821	811.9	800	788.5	777.3	766.2
100000 kPa	825.5	816.7	805.2	794	783	772.3
110000 kPa	830	821.4	810	799.2	788.5	778.1
120000 kPa	834.2	825.7	814.7	804	793.6	783.4
130000 kPa	838.3	830.1	819.3	808.7	798.6	788.6
140000 kPa	842.1	834.2	823.5	813.3	803.3	793.6
